Literature values as cited in PMC11335710, “Sitagliptin elevates plasma and CSF incretin levels following oral administration to nonhuman primates: relevance for neurodegenerative disorders” (GeroScience, 2024).

System: DPP-4
Conditions: rat, human clinically equivalent doses; cited from earlier work

## N[C@@H](CC(=O)N1CCn2c(nnc2C(F)(F)F)C1)Cc1cc(F)c(F)cc1F [sitagliptin]
  Inhibition of brain DPP-4 activity: > 20%
  Inhibition of plasma DPP-4 activity: > 60%
